Assay results: PubChem BioAssay AID488969 (Vanderbilt High Throughput Screening Facility, 2010)
The list shows a part of the results, in another mix than the full data.

Chains of the proteins cited; added tags and fusions are not shown.
UniProt P70579, whole entry: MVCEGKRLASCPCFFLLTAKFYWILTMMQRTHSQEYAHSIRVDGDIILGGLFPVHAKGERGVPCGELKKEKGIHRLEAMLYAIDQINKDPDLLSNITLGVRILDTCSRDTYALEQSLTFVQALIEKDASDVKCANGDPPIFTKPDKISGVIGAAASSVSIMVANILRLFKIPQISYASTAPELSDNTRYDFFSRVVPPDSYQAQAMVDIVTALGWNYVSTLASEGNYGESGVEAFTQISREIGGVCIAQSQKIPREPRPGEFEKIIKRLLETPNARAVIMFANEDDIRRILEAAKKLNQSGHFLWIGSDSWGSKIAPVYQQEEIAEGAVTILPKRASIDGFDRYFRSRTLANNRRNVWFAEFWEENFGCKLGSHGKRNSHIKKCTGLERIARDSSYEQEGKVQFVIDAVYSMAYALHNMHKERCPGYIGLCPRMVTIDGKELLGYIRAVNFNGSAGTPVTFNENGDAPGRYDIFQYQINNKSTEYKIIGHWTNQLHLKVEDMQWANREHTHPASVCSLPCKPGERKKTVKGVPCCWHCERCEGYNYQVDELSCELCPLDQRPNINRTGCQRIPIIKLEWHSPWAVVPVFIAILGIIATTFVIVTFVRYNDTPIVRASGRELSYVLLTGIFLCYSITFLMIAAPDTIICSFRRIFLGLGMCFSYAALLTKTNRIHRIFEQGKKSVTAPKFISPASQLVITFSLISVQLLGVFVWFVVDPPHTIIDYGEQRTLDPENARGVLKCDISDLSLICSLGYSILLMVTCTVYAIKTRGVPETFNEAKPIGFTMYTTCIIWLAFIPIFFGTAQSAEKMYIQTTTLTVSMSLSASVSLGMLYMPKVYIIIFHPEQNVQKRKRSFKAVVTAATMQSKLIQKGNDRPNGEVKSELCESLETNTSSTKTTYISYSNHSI

Target: Metabotropic glutamate receptor 8 (Rattus norvegicus) (UniProt P70579)
Assay: rat mGluR8 modulators via GIRK flux, primary screen, cell-based, thallium flux, HTS (AID 488969)
Details: HEK293 rat mGluR8, GIRK (G protein-gated inwardly rectifying potassium channel) thallium flux, FluoZin2; at 10 µM; stronger effect = higher value; submaximal glutamate (EC20) added with thallium

Compound	z-score
CCOC(=O)c1ccc(NP(C)(=O)Oc2ccc(OC)cc2)cc1 (configuration not stated)	-0.108
CP(=O)(Nc1ccccn1)Oc1ccc(Cl)cc1 (configuration not stated)	-0.189
Cc1cccc(C)c1OP(C)(=O)Nc1ccc(SC(F)(F)F)cc1 (configuration not stated)	0.968
Cc1cc(C)cc(OP(C)(=O)Nc2ccc(SC(F)(F)F)cc2)c1 (configuration not stated)	-0.0619
CP(=O)(NC(=O)Nc1ccccc1)Oc1ccccc1 (configuration not stated)	0.339
CP(=S)(Nn1cnnc1)Oc1ccccc1 (configuration not stated)	-0.226
COc1ccc(OP(C)(=O)Nc2cccc(F)c2)cc1 (configuration not stated)	-0.518
CC(C)(C)c1ccc(OP(C)(=O)Nc2ccc(SC(F)(F)F)cc2)cc1 (configuration not stated)	-0.327
Cc1ccc(C)c(NP(C)(=O)Oc2ccccc2)c1 (configuration not stated)	-0.0106
Cc1cc(C)cc(OP(C)(=O)Nc2ccccn2)c1 (configuration not stated)	0.226
CCOC(=O)c1ccc(NP(C)(=O)Oc2cc(C)cc(C)c2)cc1 (configuration not stated)	-0.356
Cc1cc(C)cc(OP(C)(=O)Nc2ccc(C)cc2C)c1 (configuration not stated)	0.074
CC1=NCCc2c1[nH]c1ccccc21.O=[N+]([O-])c1cc([N+](=O)[O-])c(O)c([N+](=O)[O-])c1	-0.356
COc1ccccc1OP(C)(=O)Nc1c(C)cccc1C (configuration not stated)	-0.15
CN1CCCCC1COC(=O)C1(O)c2ccccc2CCc2ccccc21 (configuration not stated)	0.653
CP(=O)(Nc1ccc2c(c1)OCCO2)Oc1ccccc1 (configuration not stated)	0.864
CCOP(C)(=S)SCC(=O)NC(C)(CC)C(=O)O (configuration not stated)	0.106
COc1ccc(OP(C)(=O)Nc2cccc(Br)c2)cc1 (configuration not stated)	0.0233
CN(C)CCOC(=O)C(O)(c1ccccc1)C1CCCCC1 (configuration not stated)	-0.0349

Compound	z-score
CCN(CC)CCCOC(=O)C(O)(c1ccccc1)C1CCCCC1 (configuration not stated)	0.464
CP(=O)(Nc1ccccc1)Oc1ccc(F)cc1 (configuration not stated)	0.00465
Cc1c(NP(C)(=O)Oc2ccc(C(C)C)cc2)c(=O)n(-c2ccccc2)n1C (configuration not stated)	0.103
COc1ccccc1OP(C)(=O)Nc1ccc(C)cc1C (configuration not stated)	-0.243
CP(=O)(Nc1ccccn1)Oc1ccccc1 (configuration not stated)	-0.0546
CCc1ccc(OP(C)(=O)O)cc1	-0.022
COc1ccc(OP(C)(=O)Nc2ccccn2)cc1 (configuration not stated)	-0.418
CN(C)CCOC(=O)C(O)(c1ccccc1)C1CCCC1 (configuration not stated)	-0.0717
Cc1nc2ccc3ccccc3c2o1.O=[N+]([O-])c1cc([N+](=O)[O-])c(O)c([N+](=O)[O-])c1	0.66
COc1ccccc1OP(C)(=O)Nc1ccc(C)c(C)c1 (configuration not stated)	-0.488
COc1ccc(OP(C)(=O)Nc2ccccc2Br)cc1 (configuration not stated)	-0.615
CP(=O)(OC12CC3CC(CC(C3)C1)C2)OC12CC3CC(CC(C3)C1)C2	-0.339
CC(C)(C)c1ccc(OP(C)(=O)O)cc1	-0.103
CP(=O)(Nc1ccc(Cl)cc1)Oc1ccc(F)cc1 (configuration not stated)	-0.325
COc1ccc(OP(C)(=O)Nc2ccc(Br)cc2)cc1 (configuration not stated)	0.238
CCN(CC)CC(O)COC(=O)C(O)(c1ccccc1)C1CCCCC1 (configuration not stated)	-0.214
COc1ccccc1OP(C)(=O)Nc1c(C)n(C)n(-c2ccccc2)c1=O (configuration not stated)	0.221
CP(=O)(Oc1ccccc1)N1CCOC1=O (configuration not stated)	-0.0795
